In one experiment the test system is MRSA ATCC 33591. As to the kind of experiment: Antimicrobial-resistance test. Type of experiment: cell-based, methicillin-resistant Staphylococcus aureus. The note with it: 1/2 × MIC.
Experiment [1] deals with K. pneumoniae ATCC 700603. As to the kind of experiment: Antimicrobial-resistance test. Conditions: 1/2 × MIC. Type of experiment: cell-based, Klebsiella pneumoniae.

SMILES strings stand for the structures.

For the compound `CO/N=C(\C(=O)N[C@@H]1C(=O)N2C(C(=O)O)=C(COC(C)=O)CS[C@H]12)c1csc(N)n1` [Cefotaxime], the “increase in MIC after continuous 14 passages exposure” value in the experiment on MRSA ATCC 33591 is given as “up to 8 fold”; in experiment [1], “up to 256 fold”.

Source of the values: PMC12647143 (2025).
